Experimental data published in patent US20250034147A1, “MDM2 DEGRADERS AND USES THEREOF” (Kymera Therapeutics, Inc., priority 2021, published 2025).

Chains of the proteins cited; added tags and fusions are not shown.
UniProt Q00987, whole entry: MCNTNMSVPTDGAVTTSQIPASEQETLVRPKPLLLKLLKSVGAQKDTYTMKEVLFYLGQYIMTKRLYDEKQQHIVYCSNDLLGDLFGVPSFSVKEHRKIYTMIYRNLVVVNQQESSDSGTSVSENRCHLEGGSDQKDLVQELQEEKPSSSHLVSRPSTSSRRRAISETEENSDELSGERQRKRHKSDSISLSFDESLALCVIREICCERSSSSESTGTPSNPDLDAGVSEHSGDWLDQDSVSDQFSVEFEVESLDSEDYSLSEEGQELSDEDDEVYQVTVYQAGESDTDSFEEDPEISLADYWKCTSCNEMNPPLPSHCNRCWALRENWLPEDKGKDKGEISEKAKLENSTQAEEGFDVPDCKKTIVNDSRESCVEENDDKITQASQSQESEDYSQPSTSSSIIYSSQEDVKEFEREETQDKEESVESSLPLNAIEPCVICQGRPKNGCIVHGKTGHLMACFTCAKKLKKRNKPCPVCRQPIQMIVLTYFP

What was measured:
[1] = target: HiBiT-tagged MDM2 (Homo sapiens, UniProt Q00987); assay: MDM2 HiBit HEK293T degradation; details: read-out: MDM2 HiBit HEK293T degradation 4 h: Average external-Abs DC50, HEK293T cells stably expressing C-terminally HiBiT-tagged MDM2
Experimental: HEK293T cells were grown overnight to 70-80% confluency in a 6-well plate in complete media (DMEM 10% FBS) in a 37° C. incubator with 5% CO2. Cells were transfected with 1 micrograms of C- or N-terminally HiBiT-tagged MDM2 constructs using Fugene 6 transfection reagent (Promega) as per manufacturer protocol. After overnight incubation at 37° C., growth media within the wells was replaced with selection media (DMEM+10% FBS+1 microgram/ml final concentration of Puromycin). Puromycin (selection antibiotic) concentrations required for complete cell kill were determined previously. Cells were monitored for the next 48h-96h to select for positively transfected cells. Surviving colonies were pooled and expanded in selection media. Expanded pools of HEK293T cells stably expressing C- and N-terminally HiBiT-tagged MDM2, were characterized using a MDM2 tool degrader and HaloPROTAC3 as positive control. HEK293T cells expressing C-terminally HiBiT-tagged MDM2 were subsequently used for assessment of degradation potencies for MDM2 degraders.
The letter codes for MDM2 degradation potency (DC50) include: A (<10 nM), B […], C (>100-1000 nM), and D (>1000 nM).

[2] = tested on: RS411 cells; assay: Cell Viability CTG Assay; details: read-out: Average external-IC50, CellTiter Glo (CTG) cell viability
Experimental: Compounds or DMSO 60 nL were stamped to the cell plate as the platemap. RS411 cells were centrifuged at 800 rpm for 5 min, suspended with culture medium, and counted with Countess (Invitrogen). The cell density was adjusted to the recommend information. 30 μL of cell solution (1000 cells/well) was added to the assay plate as the platemap and 30 μL of media was added to column 2 and column 23 as the platemap. The plate was spun down briefly. The final concentration of the compounds started at 10 μM (3 fold dilution and 11 doses) and final DMSO concentration was 0.2%. The plate was spun down briefly and incubated at 37° C., 5% CO2 for 1 day. […] 30 μL CellTiter Glo reagent was added to each well and the plate was centrifuged at 1000 rpm for 30 sec. The plate was shaken for 1 min and centrifuged at 1000 rpm for 30 sec. The plate was incubated at RT for 10 min to stabilize the luminescent signal and the luminescence was read by EnVision.
The letter codes for IC50 indicate the concentration of compound required to affect 50% of cells: A (<0.005 μM), B (0.005-0.05 μM), C (0.05-0.5 μM), and D (>0.5 μM).

SMILES	DC50 [1] [nM]	IC50 [2] [nM]
Cn1c(=O)n(C2CCC(=O)NC2=O)c2ccc(C3CCN(CCN4CC(NC(=O)[C@@H]5NC6(CCCCC6)[C@@]6(C(=O)Nc7cc(Cl)ccc76)[C@H]5c5cccc(Cl)c5F)C4)CC3)cc21 (stereo partly drawn)	< 10	–
Cn1c(=O)n(C2CCC(=O)NC2=O)c2ccc(C3CCN(C[C@]4(O)CC[C@@H](NC(=O)[C@@H]5NC6(CCCCC6)[C@@]6(C(=O)Nc7cc(Cl)ccc76)[C@H]5c5cccc(Cl)c5F)CC4)CC3)cc21 (stereo partly drawn)	< 10	< 5
CN1C(=O)CCC(n2c(=O)n(C)c3cc(C4CCN(C(=O)[C@H]5CC[C@H](NC(=O)[C@@H]6NC7(CCCCC7)[C@@]7(C(=O)Nc8cc(Cl)ccc87)[C@H]6c6cccc(Cl)c6F)CC5)CC4)ccc32)C1=O (stereo partly drawn)	> 1000	–
CN1[C@@H](C(=O)N[C@H]2CC[C@H](C(=O)N3CCN(CCc4ccc5c(c4)n(C)c(=O)n5C4CCC(=O)NC4=O)CC3)CC2)[C@H](c2cccc(Cl)c2F)[C@]2(C(=O)Nc3cc(Cl)ccc32)C12CCCCC2 (stereo partly drawn)	< 10	< 5
Cn1c(=O)n(C2CCC(=O)NC2=O)c2ccc(CCCC3(C(=O)O)CCN(C(=O)[C@H]4CC[C@H](NC(=O)[C@@H]5NC6(CCCCC6)[C@@]6(C(=O)Nc7cc(Cl)ccc76)[C@H]5c5cccc(Cl)c5F)CC4)CC3)cc21 (stereo partly drawn)	10 to 100	5 to 50
Cn1c(=O)n(C2CCC(=O)NC2=O)c2ccc(CCN3CCN(C[C@H]4CC[C@H](NC(=O)[C@@H]5NC6(CCCCC6)[C@@]6(C(=O)Nc7cc(Cl)ccc76)[C@H]5c5cccc(Cl)c5F)CC4)[C@H](C(=O)O)C3)cc21 (stereo partly drawn)	< 10	–
